# Reference: patent publication US20230071840A1, “HETEROCYCLIC GLP-1 AGONISTS” (Gasherbrum Bio, Inc., priority 2020, published 2023)
# Sequences of proteins named here, by UniProt entry; tags and fusion partners are left off. Residues count along the entry.
# UniProt P43220, 24-463, species assumed: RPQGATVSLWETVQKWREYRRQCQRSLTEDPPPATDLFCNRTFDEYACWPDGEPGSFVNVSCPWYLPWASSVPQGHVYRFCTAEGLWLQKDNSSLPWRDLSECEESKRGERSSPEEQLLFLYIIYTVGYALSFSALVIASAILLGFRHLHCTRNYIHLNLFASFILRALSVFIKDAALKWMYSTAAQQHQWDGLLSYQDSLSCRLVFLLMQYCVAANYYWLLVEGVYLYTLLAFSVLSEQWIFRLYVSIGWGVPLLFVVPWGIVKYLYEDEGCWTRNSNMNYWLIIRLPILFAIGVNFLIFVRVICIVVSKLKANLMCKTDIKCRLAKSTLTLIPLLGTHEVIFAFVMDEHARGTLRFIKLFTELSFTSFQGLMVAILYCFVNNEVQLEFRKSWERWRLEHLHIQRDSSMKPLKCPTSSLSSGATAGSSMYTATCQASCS
# Target: GLP-1 Receptor (Homo sapiens, UniProt P43220)
# Assay: GLP-1R agonist cAMP stimulation assay (HEK293/GLP1R/CRE-LUC cells, cAMP dynamic 2 kit)
# Assay type: cell-based
# Conditions: HEK293/CRE-Luc cell line stably expressing the GLP-1 Receptor; 30 min incubation at 37° C.; read-out: GLP1R cAMP Stimulation DR: EC50
# Description: Activation of GLP-1 receptor is known to stimulate cyclic AMP (cAMP) production in cells which indicates primary coupling to the Gas subunit of the G protein heterotrimeric complex.
# To optimize functional activity directed toward Gas coupling, a HEK293/CRE-Luc cell line developed by HDB stably expressing the GLP-1 Receptor was used. […] Seal the plate and incubate at 37° C. with 5% CO2 for 30 min.
# After incubation the cAMP assay signal was generated using cAMP dynamic 2 Kit (Cisbio). 5 μL cAMP-d2 working solution was added to each well, followed with 5 μL Anti-cAMP antibody-cryptate working solution added to each well using ThermoFisher Multidrop Combi. Incubate at room temperature for 1 hour protected from light.
# % Activity=[…]×(mean RLU of test sample−mean RLU of vehicle control)/(mean RLU of MAX control−mean RLU of vehicle control))
row,SMILES,EC50
1,"O=C(O)c1ccc2nc(CN3CCC(Oc4cccc(Cc5ccccc5)n4)CC3)n(C[C@@H]3CCO3)c2n1 [Compound 123a, 2-({4-[(6-benzylpyridin-2-yl)oxy]piperidin-1-yl}methyl)-3-{[(2S)-oxetan-2-yl]methyl}-3H-imidazo[4,5-b]pyridine-5-carboxylic acid]",1.7 nM
2,"O=C(O)c1ccc2nc(CC3CCN(C(=O)c4nc(Cc5ccc(Cl)cc5F)cs4)CC3)n(C[C@@H]3CCO3)c2n1 [Compound 103a, (S)-2-((1-(5-(4-chloro-2-fluorobenzyl)thiazole-2-carbonyl)piperidin-4-yl)methyl)-3-(oxetan-2-ylmethyl)-3H-imidazo[4,5-b]pyridine-5-carboxylic acid]",19.6 nM
3,"O=C(O)c1ccc2nc(CN3CCC(Oc4ccccc4Cc4ccc(Cl)cc4F)CC3)n(C[C@@H]3CCO3)c2n1 [Compound 107a, (S)-2-((4-(2-(4-Chloro-2-fluorobenzyl)phenoxy)piperidin-1-yl)methyl)-3-(oxetan-2-ylmethyl)-3H-imidazo[4,5-b]pyridine-5-carboxylic acid]",201 nM
4,"O=C(O)c1ccc2nc(CC3CCN(C(=O)c4ccn(Cc5ccc(Cl)cc5F)n4)CC3)n(C[C@@H]3CCO3)c2n1 [Compound 101a, (S)-2-((1-(1-(4-chloro-2-fluorobenzyl)-1H-pyrazole-3-carbonyl)piperidin-4-yl)methyl)-3-(oxetan-2-ylmethyl)-3H-imidazo[4,5-b]pyridine-5-carboxylic acid]",290 nM
5,"Cc1cn(Cc2ccc(Cl)cc2F)nc1C(=O)N1CCC(Cc2nc3ccc(C(=O)O)nc3n2C[C@@H]2CCO2)CC1 [Compound 102a, (S)-2-((1-(1-(4-chloro-2-fluorobenzyl)-4-methyl-1H-pyrazole-3-carbonyl)piperidin-4-yl)methyl)-3-(oxetan-2-ylmethyl)-3H-imidazo[4,5-b]pyridine-5-carboxylic acid]",179 nM
6,"O=C(O)c1ccc2nc(CN3CCC(Oc4cccc(Oc5ccc(Cl)cc5F)n4)CC3)n(C[C@@H]3CCO3)c2n1 [Compound 118a, 2-[(4-{[6-(4-chloro-2-fluorophenoxy)pyridin-2-yl]oxy}piperidin-1-yl)methyl]-3-{[(2S)-oxetan-2-yl]methyl}-3H-imidazo[4,5-b]pyridine-5-carboxylic acid]",30 nM
7,"O=C(O)c1ccc2nc(CC3CCN(Cc4nc(Cc5ccc(Cl)cc5F)cs4)CC3)n(C[C@@H]3CCO3)c2n1 [Compound 105a, (S)-2-((1-((4-(4-Chloro-2-fluorobenzyl)thiazol-2-yl)methyl)piperidin-4-yl)methyl)-3-(oxetan-2-ylmethyl)-3H-imidazo[4,5-b]pyridine-5-carboxylic acid]",497 nM
8,"O=C(O)c1ccc2nc(CC3CCN(C(=O)c4ncc(Cc5ccc(Cl)cc5F)s4)CC3)n(C[C@@H]3CCO3)c2n1 [Compound 104a, (S)-2-((1-(5-(4-Chloro-2-fluorobenzyl)thiazole-2-carbonyl)piperidin-4-yl)methyl)-3-(oxetan-2-ylmethyl)-3H-imidazo[4,5-b]pyridine-5-carboxylic acid]",725 nM
9,"O=C(O)c1ccc2nc(CN3CCC(Oc4cccc(Cc5ccc(Cl)cc5F)n4)CC3)n(C[C@@H]3CCO3)c2n1 [Compound 109a, (S)-2-((4-((6-(4-Chloro-2-fluorobenzyl)pyridin-2-yl)oxy)piperidin-1-yl)methyl)-3-(oxetan-2-ylmethyl)-3H-imidazo[4,5-b]pyridine-5-carboxylic acid]",0.051 nM
